ChEMBL document CHEMBL2150880, “Discovery and characterization of small molecule inhibitors of the BET family bromodomains” (J Med Chem, 2011)

Protein sequences, listed by entry. Tags and fused reporters are not part of them.
UniProt Q15059, whole entry: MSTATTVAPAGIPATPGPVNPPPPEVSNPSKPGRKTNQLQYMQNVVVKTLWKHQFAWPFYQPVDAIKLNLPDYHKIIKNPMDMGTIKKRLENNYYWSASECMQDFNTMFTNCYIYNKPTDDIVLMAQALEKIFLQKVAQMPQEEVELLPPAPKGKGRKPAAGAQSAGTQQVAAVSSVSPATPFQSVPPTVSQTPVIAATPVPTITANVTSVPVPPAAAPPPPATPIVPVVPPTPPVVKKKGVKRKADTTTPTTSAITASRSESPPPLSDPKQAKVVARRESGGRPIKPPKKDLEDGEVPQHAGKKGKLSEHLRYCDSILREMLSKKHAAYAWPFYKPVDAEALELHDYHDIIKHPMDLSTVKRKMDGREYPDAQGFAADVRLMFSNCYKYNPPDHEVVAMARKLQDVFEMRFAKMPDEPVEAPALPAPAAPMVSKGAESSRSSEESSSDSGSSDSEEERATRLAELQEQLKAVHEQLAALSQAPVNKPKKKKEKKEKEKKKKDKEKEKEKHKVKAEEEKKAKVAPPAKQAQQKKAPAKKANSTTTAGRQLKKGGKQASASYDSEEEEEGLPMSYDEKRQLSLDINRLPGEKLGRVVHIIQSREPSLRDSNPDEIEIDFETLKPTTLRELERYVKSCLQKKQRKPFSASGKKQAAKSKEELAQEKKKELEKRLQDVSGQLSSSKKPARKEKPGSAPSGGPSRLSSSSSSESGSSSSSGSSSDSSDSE

Key:
[1] = biological target: T1, Bromodomain-containing protein 3 (Homo sapiens, UniProt Q15059); assay: Binding affinity to N-terminal portion of human Brd3 containing bromodomain BD12 expressed in Escherichia coli by isothermal titration calorimetric analysis
[2] = biological target: T1, Bromodomain-containing protein 3; assay: Displacement of tetra-acetylated H4 peptide from human Brd3 bromodomain BD12 after 1 hr by FRET analysis

## Cc1nnc2n1-c1ccccc1C(c1ccccc1)=NC2NC(=O)OCc1ccccc1 (configuration not stated)
[1]
  Kd: 0.019 µM
[2]
  IC50: 0.0284 µM
